The record followed here is patent US10426772B2, “Use of ergot alkaloids as an anthelmintic agent” (priority 2016, dated 2019).

By UniProt entry, the sequences of proteins in these tests, tags left out. Residues count along the entry.
UniProt P34969, 1-445 isoform P34969-2: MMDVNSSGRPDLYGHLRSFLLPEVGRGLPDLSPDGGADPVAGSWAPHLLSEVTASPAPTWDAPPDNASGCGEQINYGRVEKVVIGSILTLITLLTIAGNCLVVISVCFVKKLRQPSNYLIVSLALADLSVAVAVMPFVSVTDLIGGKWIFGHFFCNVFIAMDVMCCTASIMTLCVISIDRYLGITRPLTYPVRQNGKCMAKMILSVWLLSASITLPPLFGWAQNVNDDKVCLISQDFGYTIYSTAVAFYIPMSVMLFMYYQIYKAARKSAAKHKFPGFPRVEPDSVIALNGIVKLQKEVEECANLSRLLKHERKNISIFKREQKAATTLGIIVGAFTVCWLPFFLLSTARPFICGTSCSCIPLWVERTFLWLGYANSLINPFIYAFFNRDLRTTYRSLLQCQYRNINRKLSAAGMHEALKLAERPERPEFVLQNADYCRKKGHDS

The structures appear in SMILES notation.

The target in this assay is T1, Hs.5HT7R (Homo sapiens, UniProt P34969).
T1 construct: host or cells: HEK293 (ATCC CRL-1573.3), transient, pCS2(−), co-transfected with GloSensor
Nature of the assay: GloSensor cAMP assay, HEK293 cells transiently transfected with Hs.5HT7R. The note with it: FIG. 7. Format: cell-based. As for the experimental part: HEK293 cells (ATCC CRL-1573.3) were cultured in DMEM supplemented with 10% fetal bovine serum (FBS), penicillin (100 units/mL), streptomycin (100 μg/mL), and L-glutamine (290 μg/mL). Cells were transiently transfected (ViaFect, Promega) as per the manufacturer's protocol at a density of 2×10^6 cells per T-25 cell-culture flask. Cells were transfected with plasmids encoding GloSensor (Promega) and either Sm.5HTR, (Smp_126730, GenBank accession number KF444051.1) or Sm.5HTRL (KX150867), both GPCRs being codon optimized for mammalian expression, or Hs.5HT7a (GenBank accession number NM_000872.4, R&D Systems) subcloned into pCS2(−). Cell culture reagents were from Invitrogen. Epitope tagged constructs were used to verify expression, and untagged constructs used for all luminescence assays.
For assays performed on adherent cells, HEK-293 cells were transferred one day post transfection to 96 well, solid white plates (Corning, cat #3917) coated with 0.01% poly-L-lysine (Sigma Aldrich) at a density of 5×10^4 cells/well in DMEM supplemented with 1% dialyzed FBS (Gibco). […] Plates were allowed to equilibrate at room temperature for two hours prior to performing luminescence assays (GloMax-Multi Detection System plate reader, Promega). […]
The protocol for screening is shown schematically in FIG. 5A. […] Luminescence was then read at a fixed time point (t=60 minutes, FIG. 5A). […]

`CC1CCN(CC[C@H]2CCCN2S(=O)(=O)c2cccc(O)c2)CC1` [SB269970]: the “inhibition of Hs.5HT7R, in words” value is on record as “potent inhibitors of Hs.5HT7R”.
